From PubChem BioAssay AID504894 (National Center for Advancing Translational Sciences (NCATS), 2011)
The list shows a part of the results, in another mix than the full data. Active and inactive are the calls of the source. The call rests on the fitted dose curve; in most records, active means well fitted activation curve with a large enough effect; inconclusive means small, poorly fitted or top-dose-only effect, or another doubt; inactive means no such curve, though single readings can be large or run the other way.

assay: Activators of T cell receptors: qHTS campaign; settings: primary human leukocytes, anti-CD3, IL-2 HTRF, 48 h; at 9.22 µM unless noted; further: % of control where 0% means no effect
Text: Normally activation of naive T cells requires two signals. 1. A signal through the T cell receptor (TCR) which provides antigen specificity to the response. 2. Signals through co-stimulatory molecules, which are necessary for proliferation, survival and cytokine production. In the absence of co-stimulatory signals T cells are not effectively activated, and may even be rendered anergic or unresponsive to subsequent signaling. This lack of costimulation has been shown in multiple model systems to be a major factor in the limited strength and effectiveness of anti-tumor T cell responses. The goal of this project is to identify small molecule compounds that will stimulate T cell activation in the presence of TCR signaling but in the absence of co-stimulatory signals, thereby allowing activation of naive T cells in the absence of co-stimulation. Identification of such compounds would have clear experimental and clinical applications in instances where desirable antigen-specific immune responses are not generated due to a lack of co-stimulation, for example in the generation of anti-tumor responses. In collaboration between the National Cancer Institute and NIH Chemical Genomics Center, a high-throughput amenable screen was developed to discover small molecules that co-stimulate and activate human T cell receptors. The screen will be carried out using a novel homogeneous time resolved fluorescence energy transfer (HTRF) assay to measure production of the cytokine IL-2 by activated T cells and will be tested against the NIH Molecular Libraries Small Molecule Repository (MLSMR). NIH Chemical Genomics Center [NCGC] NIH Molecular Libraries Probe Centers Network [MLPCN] MLPCN Grant: MH090820-01 Assay Submitter (PI): Richard Hodes, National Cancer Institute, NIH
Primary human leukocytes are incubated with a-CD3 beads and compounds for 48 hr. The amount of secreted IL-2 is then assayed with a HTRF IL-2 kit. The presence of IL-2 cytokine captures the detection reagents and brings the a-IL-2-K and a-IL-2-d2 into close proximity. Upon excitation with 320nm light, the europium cryptate is capable of transferring energy to acceptor molecules within close proximity, resulting in acceptor molecule emission at 665nm.

Q: Which activation of IL-2 secretion does the source give for `Cc1ccccc1NC1(C#N)CCN(Cc2ccccc2)CC1` here?
A: inactive: -2.67%

Q: For `Cn1c(=O)[nH]cc(N(CCCl)CCCl)c1=O`, which activation of IL-2 secretion is on record?
A: inactive: 2.07%

Q: For `CN(C)c1ccc(C(=O)NCC2(N3CCCCC3)CCCCC2)cc1`, which activation of IL-2 secretion is on record?
A: inactive: 4.2%

Q: With `O=C(NCC1(N2CCCCC2)CCCCC1)c1ccco1` as the molecule, how does the activation of IL-2 secretion read?
A: inactive: 0.495%

Q: Which activation of IL-2 secretion does the source give for `COc1cc(OC)cc(C(=O)NCC2(N3CCCCC3)CCCCC2)c1` here?
A: inactive: -5.68%

Q: Which activation of IL-2 secretion does the source give for `CC(=O)N(c1ccccc1)C1CCNCC1` here?
A: inactive: 1.84%

Q: With `Cc1ccc(NC2(C#N)CCN(Cc3ccccc3)CC2)cc1` as the molecule, how does the activation of IL-2 secretion read?
A: inactive: 4.17%

Q: For `Fc1ccccc1NC1CCN(Cc2ccccc2)CC1`, which activation of IL-2 secretion is on record?
A: inactive: 5.23%

Q: Which activation of IL-2 secretion does the source give for `Cc1ccc(C(=O)NCC2(N3CCCCC3)CCCCC2)o1` here?
A: inactive: -7.49%

Q: For `CCC(CO)(C(=O)OC1CN2CCC1CC2)c1ccccc1` (configuration not stated), which activation of IL-2 secretion is on record?
A: inactive: -3.01%

Q: With `COc1cccc(C(=O)N(c2cc(C)cc(C)c2)C2CCN(C(=O)OC(C)(C)C)CC2)c1` as the molecule, how does the activation of IL-2 secretion read?
A: inactive: -10.1%

Q: For `COc1cc(OC)cc(C(=O)NCC2(N3CCOCC3)CCCCC2)c1`, which activation of IL-2 secretion is on record?
A: inactive: 2.87%

Q: With `CCOc1ncccc1C(=O)NCC1(N2CCOCC2)CCCCC1` as the molecule, how does the activation of IL-2 secretion read?
A: inactive: 1.43%

Q: With `CCCOc1ccc(C(=O)NCC2(N(C)C)CCCCC2)cc1` as the molecule, how does the activation of IL-2 secretion read?
A: inactive: -0.164%

Q: Which activation of IL-2 secretion does the source give for `O=C(O)C1(Nc2ccccc2)CCN(Cc2ccccc2)CC1` here?
A: inactive: -2.41%

Q: Which activation of IL-2 secretion does the source give for `CC(C)(C)OC(=O)N1CCC(Nc2ccccc2)CC1` here?
A: inactive: 1.08%

Q: With `N/C(=N\O)c1c(N)no[n+]1[O-]` as the molecule, how does the activation of IL-2 secretion read?
A: inactive: 2.79%

Q: For `O=C(O)c1cccc(Nc2c([N+](=O)[O-])cc([N+](=O)[O-])cc2[N+](=O)[O-])c1`, which activation of IL-2 secretion is on record?
A: inactive: -1.19%

Q: Which activation of IL-2 secretion does the source give for `O=C(OC1CN2CCC1CC2)C1c2ccccc2C=Cc2ccccc21` (configuration not stated) here?
A: inactive: 0.0201% [at 46.1 µM]

Q: For `CCc1cc(C(=O)NCC2(N3CCCCC3)CCCCC2)sc1C`, which activation of IL-2 secretion is on record?
A: inactive: -5.48%

Q: For `O=C(NCC1(N2CCOCC2)CCCCC1)c1cc(Br)ccc1Cl`, which activation of IL-2 secretion is on record?
A: inactive: 4.15%

Q: Which activation of IL-2 secretion does the source give for `COc1ccc(C(=O)NCC2(N3CCOCC3)CCCCC2)cc1OC` here?
A: inactive: -1.05%

Q: For `Cc1cc(N(CCCl)CCCl)ccc1C=O`, which activation of IL-2 secretion is on record?
A: inactive: -5.36%

Q: With `c1ccc(CN2CCC(Nc3ccccc3)CC2)cc1` as the molecule, how does the activation of IL-2 secretion read?
A: inactive: -2.38%

Q: Which activation of IL-2 secretion does the source give for `CN(C)C1(CNC(=O)c2cccc(C#N)c2)CCCCC1` here?
A: inactive: -0.684%

Q: With `CC(C)(C)OC(=O)N1CCC(N(C(=O)c2ccccc2)c2ccc(Cl)cc2)CC1` as the molecule, how does the activation of IL-2 secretion read?
A: inactive: -5.26%

Q: With `N#Cc1ccc(C(=O)NCC2(N3CCCCC3)CCCCC2)cc1` as the molecule, how does the activation of IL-2 secretion read?
A: inactive: -2.45%

Q: For `CCOC(=O)C(CC)C1=NC(C)(C)Cc2ccccc21.O=[N+]([O-])c1cc([N+](=O)[O-])c(O)c([N+](=O)[O-])c1` (configuration not stated), which activation of IL-2 secretion is on record?
A: inactive: -1.32%

Q: For `O=C(NCC1(N2CCCCC2)CCCCC1)c1cccc(C(F)(F)F)c1`, which activation of IL-2 secretion is on record?
A: inactive: 4.43%

Q: For `O=[N+]([O-])c1cc([N+](=O)[O-])c(NCC2CCS(=O)(=O)C2)c([N+](=O)[O-])c1` (configuration not stated), which activation of IL-2 secretion is on record?
A: inactive: -0.688%

Q: With `CC(C)c1ccc(C(=O)NCC2(N3CCOCC3)CCCCC2)cc1` as the molecule, how does the activation of IL-2 secretion read?
A: inactive: -0.052%

Q: Which activation of IL-2 secretion does the source give for `COc1ccc(NC2CCN(C(=O)OC(C)(C)C)CC2)cc1` here?
A: inactive: 7.39%

Q: With `CN1CCN(CCOC(=O)C(O)(c2ccccc2)c2ccccc2)CC1` as the molecule, how does the activation of IL-2 secretion read?
A: inactive: -4.82% [at 46.1 µM]

Q: Which activation of IL-2 secretion does the source give for `O=C(NCC1(N2CCOCC2)CCCCC1)c1cc(=O)[nH]c2ccccc12` here?
A: inactive: -2.74%

Q: For `COc1cc(C(=O)NCC2(N3CCCCC3)CCCCC2)ccc1OC(F)F`, which activation of IL-2 secretion is on record?
A: inactive: -2.51%

Q: Which activation of IL-2 secretion does the source give for `O=C(NCC1(N2CCCCC2)CCCCC1)c1ccc(OC(F)F)cc1` here?
A: inactive: -7.02%

Q: With `CSc1ccc(C(=O)NCC2(N3CCOCC3)CCCCC2)cc1` as the molecule, how does the activation of IL-2 secretion read?
A: inactive: -9.99%
